Source: paper PMC11280027, “Conquering the beyond Rule of Five Space with an Optimized High-Throughput Caco-2 Assay to Close Gaps in Absorption Prediction” (Pharmaceutics, 2024)

Columns and labels:
in vitro = conditions: human, Caco-2, pH 7.4
[1] = human fraction absorbed; rounded to two significant figures; ref [17]; cited from earlier work

Row | efflux ratio (in vitro) | Compound | Observed Human fa [1]
1 | > 2 | CC(C)CN(C[C@@H](O)[C@H](Cc1ccccc1)NC(=O)O[C@H]1CCOC1)S(=O)(=O)c1ccc(N)cc1 [Amprenavir] | 
2 |  | Cc1nc2n(c(=O)c1CCN1CCC(c3noc4cc(F)ccc34)CC1)CCCC2 [Risperidone] | 0.85
